# Curated experimental data: melting point values

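These are experimental values that the OPERA curators gathered from public databases to train and test their QSAR models. A listed value is a point estimate from one report or more. Method and conditions are not stated for these values. The measured form (salt, isomer or mixture) is not always the one drawn. Some upstream entries may be estimates or bounds without being marked so.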

Melting points are in °C.

structure (SMILES)	melting point (°C)
COc1ccccc1OCC1CNC(=O)O1 (stereo unspecified)	144
CC(C)(C)c1ccc(C(=O)CCCN2CCC(OC(c3ccccc3)c3ccccc3)CC2)cc1.O=C(O)/C=C/C(=O)O	199
CC(=O)c1c(C)nc2sccn12	133
OCCCCC(O)CO (stereo unspecified)	-26.5
Clc1ccc(OCCCBr)cc1	31.5
COc1ccc(N2CCN(c3ccc(-n4cn[nH]c4=O)cc3)CC2)cc1	289.9
O=S(=O)([O-])CC(O)C[n+]1ccccc1 (stereo unspecified)	245.4
CCOC(=O)C(=Cc1ccc(C=C(C(=O)OCC)C(=O)OCC)cc1)C(=O)OCC	137
NN1CCN(C(c2ccccc2)c2ccccc2)CC1	109
CC(C)(C)c1cc(C(C)(CC(=O)OCCOC(=O)CC(C)(c2ccc(O)c(C(C)(C)C)c2)c2ccc(O)c(C(C)(C)C)c2)c2ccc(O)c(C(C)(C)C)c2)ccc1O	169.3
Cc1cc2ccc3cc(C)cc4ccc(c1)c2c34	230
N#CCCC(=O)c1ccco1	82
ON=C1CCCCCCC1	36.5
COc1ncc2nccnc2n1	150
Cc1ccc2c(c1C)NC(=O)C2=O	230
COc1ccc(C=O)c(Cl)c1	61
C1CNCCN1.Cl.Cl	335
Cc1[nH]c2ccccc2c1C(=O)CCl	228
O=P(OCCCl)(OCCCl)OCC(CCl)(CCl)COP(=O)(OCCCl)OCCCl	50.5
CCCCCCCCCCCCCCOC(=O)CCCCCCCCCCCCC	42.25
Nc1ncc(Cc2cc(Cl)ccc2Cl)s1	112
CNS(=O)(=O)c1cc(C(=O)O)ccc1Cl	227
O=C(O)C(=Cc1ccc(F)cc1)c1cccs1	186
Cc1ccc(S(=O)(=O)Nc2ccc(Nc3ccccc3)cc2)cc1	147.1
CC(=O)c1oc2ccccc2c1N	155
N#Cc1ccccc1-c1ccccc1C(=O)O	169
O=C(O)C1=NN(c2ccccc2)C(=O)CC1	170
COC(=O)C(C#N)c1nc2ccccc2nc1Cl (stereo unspecified)	198
Cc1cc(C=O)c(C)n1-c1ccc(F)cc1	101
Nc1nc2ccccc2n1N	260
CCCCC[C@H]1CC[C@H](C(=O)O)CC1	53.5
NC(=S)COc1ccc(F)cc1	121
C#CCOc1ccc(Br)cc1C=O	96
N#Cc1cc(F)c(F)cc1Cl	34.5
Cc1sc2nc(-c3ccccc3)nc(Cl)c2c1C	158
COc1cccc(NC(=O)CCl)c1	74
COC(=O)c1ccc(C(=O)Nc2cc(Cl)ccc2Cl)cc1[N+](=O)[O-]	158
CCCCCCOCCCCCC	-44.5
COC1CC2CC1C1C=CCC21 (stereo unspecified)	-80.1
C1CCC(P(CP(C2CCCCC2)C2CCCCC2)C2CCCCC2)CC1	98.5

Extract of 2 entries:

structure (SMILES)	melting point (°C)
O=C(O)C(=Cc1ccc(F)cc1)c1cccs1	186
CCCCCCOCCCCCC	-44.5

Data: OPERA 2.9 data sets, kmansouri/OPERA on GitHub.